Patent US9820966B2, “Stabilized statin formulations” (Cumberland Pharmaceuticals Inc., priority 2010, dated 2017)

Assay: Solubility in basic solutions without cyclodextrin (HPLC)
Conditions: Sample 4: 20 mg AS in 1 mL, 0.05 M Na3PO4; pH 11.55; LOQ = Limit of Quantitation

## CC(C)c1c(C(=O)Nc2ccccc2)c(-c2ccccc2)c(-c2ccc(F)cc2)n1CC[C@@H](O)C[C@@H](O)CC(=O)O [AS, Atorvastatin free acid]
  resulting AS concentration: < LOQ
